Assay results as given in ChEMBL document CHEMBL5653605, “Reduced VEGF production, angiogenesis, and vascular regrowth contribute to the antitumor properties of dual mTORC1/mTORC2 inhibitors” (Cancer Res, 2011).

Chains of the proteins cited; added tags and fusions are not shown. Lines headed by an entry give the natural chain unless they say otherwise; changes in a name come on top.
UniProt P07949, whole entry: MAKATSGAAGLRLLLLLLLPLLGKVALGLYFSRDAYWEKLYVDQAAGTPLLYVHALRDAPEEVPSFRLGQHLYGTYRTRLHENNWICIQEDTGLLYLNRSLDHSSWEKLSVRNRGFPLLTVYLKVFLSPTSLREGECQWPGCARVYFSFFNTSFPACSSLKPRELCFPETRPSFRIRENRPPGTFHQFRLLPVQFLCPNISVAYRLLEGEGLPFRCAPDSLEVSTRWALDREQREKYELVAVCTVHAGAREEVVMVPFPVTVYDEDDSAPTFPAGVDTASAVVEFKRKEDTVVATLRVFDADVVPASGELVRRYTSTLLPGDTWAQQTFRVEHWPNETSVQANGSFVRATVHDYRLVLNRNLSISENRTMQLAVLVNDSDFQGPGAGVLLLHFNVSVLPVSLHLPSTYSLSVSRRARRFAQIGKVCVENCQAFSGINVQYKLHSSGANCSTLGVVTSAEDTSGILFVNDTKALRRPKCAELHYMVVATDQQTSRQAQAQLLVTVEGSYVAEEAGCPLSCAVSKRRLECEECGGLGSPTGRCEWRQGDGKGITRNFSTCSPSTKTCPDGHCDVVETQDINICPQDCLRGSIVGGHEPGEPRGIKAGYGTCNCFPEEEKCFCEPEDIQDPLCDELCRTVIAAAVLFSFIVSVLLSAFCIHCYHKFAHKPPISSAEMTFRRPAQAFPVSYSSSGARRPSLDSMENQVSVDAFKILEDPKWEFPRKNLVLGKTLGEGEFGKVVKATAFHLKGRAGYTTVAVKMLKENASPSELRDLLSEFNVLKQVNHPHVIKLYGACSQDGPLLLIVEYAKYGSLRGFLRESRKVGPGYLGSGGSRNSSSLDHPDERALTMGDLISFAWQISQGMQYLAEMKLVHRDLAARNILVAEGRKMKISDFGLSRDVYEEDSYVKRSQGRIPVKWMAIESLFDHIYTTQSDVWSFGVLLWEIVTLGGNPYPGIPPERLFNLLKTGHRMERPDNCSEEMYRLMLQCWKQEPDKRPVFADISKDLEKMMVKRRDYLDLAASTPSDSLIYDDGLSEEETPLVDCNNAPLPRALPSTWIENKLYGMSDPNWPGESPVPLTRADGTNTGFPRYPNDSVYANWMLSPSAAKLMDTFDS
UniProt P48736: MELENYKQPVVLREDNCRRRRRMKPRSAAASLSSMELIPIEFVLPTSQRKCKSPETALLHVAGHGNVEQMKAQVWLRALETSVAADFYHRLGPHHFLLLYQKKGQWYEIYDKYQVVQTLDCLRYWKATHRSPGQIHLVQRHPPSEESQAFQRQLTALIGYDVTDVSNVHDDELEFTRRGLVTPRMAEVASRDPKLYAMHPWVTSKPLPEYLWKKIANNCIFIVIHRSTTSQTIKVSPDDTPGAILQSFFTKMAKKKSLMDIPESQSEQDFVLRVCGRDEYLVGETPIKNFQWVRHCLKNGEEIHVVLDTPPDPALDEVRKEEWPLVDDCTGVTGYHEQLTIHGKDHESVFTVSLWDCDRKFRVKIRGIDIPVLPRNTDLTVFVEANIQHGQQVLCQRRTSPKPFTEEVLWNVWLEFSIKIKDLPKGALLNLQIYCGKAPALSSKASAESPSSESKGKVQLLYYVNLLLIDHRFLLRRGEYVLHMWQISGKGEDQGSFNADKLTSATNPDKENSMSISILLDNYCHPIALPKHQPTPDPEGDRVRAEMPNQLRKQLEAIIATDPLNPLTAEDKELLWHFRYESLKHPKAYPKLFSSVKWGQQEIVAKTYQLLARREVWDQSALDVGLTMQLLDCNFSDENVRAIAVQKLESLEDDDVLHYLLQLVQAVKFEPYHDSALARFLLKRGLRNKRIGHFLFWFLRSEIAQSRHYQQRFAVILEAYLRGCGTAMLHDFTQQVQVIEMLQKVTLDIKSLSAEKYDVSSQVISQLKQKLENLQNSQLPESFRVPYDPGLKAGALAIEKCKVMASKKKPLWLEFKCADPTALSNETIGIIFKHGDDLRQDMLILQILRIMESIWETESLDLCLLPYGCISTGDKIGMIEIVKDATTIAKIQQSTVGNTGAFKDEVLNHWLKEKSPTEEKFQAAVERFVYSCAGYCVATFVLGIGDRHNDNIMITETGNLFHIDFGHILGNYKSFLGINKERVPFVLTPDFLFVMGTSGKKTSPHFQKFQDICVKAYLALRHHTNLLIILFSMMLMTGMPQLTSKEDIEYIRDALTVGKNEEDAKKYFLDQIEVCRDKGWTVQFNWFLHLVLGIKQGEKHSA

How the values were obtained:
[1] = target: T1, Phosphatidylinositol 4,5-bisphosphate 3-kinase catalytic subunit delta isoform (Homo sapiens) (UniProt O00329); test: Inhibition of PI3Kdelta (unknown origin) at 3 uM by Ambit Kinomescan assay relative to control
T1 sequence (whole entry): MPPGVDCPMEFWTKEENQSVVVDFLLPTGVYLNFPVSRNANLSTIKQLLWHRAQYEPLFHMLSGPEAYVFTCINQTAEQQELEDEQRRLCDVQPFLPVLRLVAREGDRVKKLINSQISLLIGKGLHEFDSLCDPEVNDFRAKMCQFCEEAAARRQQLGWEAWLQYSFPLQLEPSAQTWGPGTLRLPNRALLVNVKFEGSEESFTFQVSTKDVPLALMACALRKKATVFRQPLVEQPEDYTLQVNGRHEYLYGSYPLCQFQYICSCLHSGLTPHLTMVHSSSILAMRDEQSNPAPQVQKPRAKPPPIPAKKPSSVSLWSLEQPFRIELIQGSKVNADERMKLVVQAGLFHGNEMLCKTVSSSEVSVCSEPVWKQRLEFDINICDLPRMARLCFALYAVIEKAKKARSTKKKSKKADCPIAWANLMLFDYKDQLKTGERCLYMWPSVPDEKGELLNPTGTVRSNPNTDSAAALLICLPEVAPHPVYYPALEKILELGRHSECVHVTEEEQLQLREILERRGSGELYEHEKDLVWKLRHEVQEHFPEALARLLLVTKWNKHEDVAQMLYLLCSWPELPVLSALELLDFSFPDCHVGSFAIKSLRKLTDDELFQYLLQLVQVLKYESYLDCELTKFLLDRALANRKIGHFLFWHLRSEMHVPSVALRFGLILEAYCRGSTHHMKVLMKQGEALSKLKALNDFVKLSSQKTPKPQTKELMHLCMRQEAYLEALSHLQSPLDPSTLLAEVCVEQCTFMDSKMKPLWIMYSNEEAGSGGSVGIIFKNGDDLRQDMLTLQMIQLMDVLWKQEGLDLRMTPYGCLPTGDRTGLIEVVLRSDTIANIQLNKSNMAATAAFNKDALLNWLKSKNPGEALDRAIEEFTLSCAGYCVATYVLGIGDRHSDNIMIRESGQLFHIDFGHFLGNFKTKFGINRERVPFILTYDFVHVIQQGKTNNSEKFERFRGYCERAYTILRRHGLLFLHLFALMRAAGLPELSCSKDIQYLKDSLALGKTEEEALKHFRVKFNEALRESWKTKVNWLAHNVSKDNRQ

[2] = target: Proto-oncogene tyrosine-protein kinase receptor Ret (Homo sapiens) (UniProt P07949); test: Inhibition of RET (unknown origin) at 3 uM by Ambit Kinomescan assay relative to control
[3] = target: Phosphatidylinositol 4,5-bisphosphate 3-kinase catalytic subunit gamma isoform (Homo sapiens, UniProt P48736); test: Inhibition of PI3Kgamma (unknown origin) at 3 uM by Ambit Kinomescan assay relative to control

Measured: inhibition

COc1cccc2cc(-c3nc([C@H]4CC[C@H](C(=O)O)CC4)n4ncnc(N)c34)[nH]c12 [OSI-027]
> 90%: all assays above
